{"source": "patent US10981928B2", "about": "“Methods of making low odor choline salts of an organic compound” (HALO LIFE SCIENCE, LLC, priority 2016, dated 2021)", "key": {"[1]": {"conditions": "room temperature"}, "[2]": {"conditions": "10 mg/ml solution in water at room temperature"}}, "data": [{"substance": "dicholine ellagate", "values": [{"measurement": "Solubility in water", "setting": "[1]", "result": 187, "unit": "mg/mL"}, {"measurement": "pH", "setting": "[2]", "result": 7.0}]}]}
